# ChEMBL document CHEMBL1126154, “Pyrrole mannich bases as potential antipsychotic agents” (J Med Chem, 1992)
# Protein sequences, listed by entry. Tags and fused reporters are not part of them. Lines headed by an entry give the natural chain unless they say otherwise; changes in a name come on top.
# UniProt P30994: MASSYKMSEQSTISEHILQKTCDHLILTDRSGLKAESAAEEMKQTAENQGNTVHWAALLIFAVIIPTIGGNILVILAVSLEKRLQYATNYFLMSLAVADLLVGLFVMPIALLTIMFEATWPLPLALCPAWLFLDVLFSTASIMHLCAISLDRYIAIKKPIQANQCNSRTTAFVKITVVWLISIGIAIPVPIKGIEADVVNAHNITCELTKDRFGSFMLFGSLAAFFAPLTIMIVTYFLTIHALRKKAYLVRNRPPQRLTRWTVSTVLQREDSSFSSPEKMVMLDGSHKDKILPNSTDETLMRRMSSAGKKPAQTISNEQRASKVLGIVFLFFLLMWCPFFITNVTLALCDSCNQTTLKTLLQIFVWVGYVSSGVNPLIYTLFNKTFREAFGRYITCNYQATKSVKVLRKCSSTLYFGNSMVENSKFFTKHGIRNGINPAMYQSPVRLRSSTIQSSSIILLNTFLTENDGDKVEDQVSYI
# UniProt P08909: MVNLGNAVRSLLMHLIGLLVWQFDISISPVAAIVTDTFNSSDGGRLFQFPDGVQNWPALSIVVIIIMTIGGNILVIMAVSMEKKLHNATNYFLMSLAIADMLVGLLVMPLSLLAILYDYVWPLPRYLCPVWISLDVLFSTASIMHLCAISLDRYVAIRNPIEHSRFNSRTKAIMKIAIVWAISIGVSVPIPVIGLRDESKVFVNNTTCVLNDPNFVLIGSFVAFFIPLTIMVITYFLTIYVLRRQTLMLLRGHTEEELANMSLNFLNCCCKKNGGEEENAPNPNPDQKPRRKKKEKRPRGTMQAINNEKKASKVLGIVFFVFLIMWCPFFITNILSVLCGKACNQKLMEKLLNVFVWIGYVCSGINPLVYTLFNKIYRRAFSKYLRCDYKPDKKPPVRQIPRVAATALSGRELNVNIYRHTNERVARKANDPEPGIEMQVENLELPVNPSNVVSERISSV
# UniProt P14842: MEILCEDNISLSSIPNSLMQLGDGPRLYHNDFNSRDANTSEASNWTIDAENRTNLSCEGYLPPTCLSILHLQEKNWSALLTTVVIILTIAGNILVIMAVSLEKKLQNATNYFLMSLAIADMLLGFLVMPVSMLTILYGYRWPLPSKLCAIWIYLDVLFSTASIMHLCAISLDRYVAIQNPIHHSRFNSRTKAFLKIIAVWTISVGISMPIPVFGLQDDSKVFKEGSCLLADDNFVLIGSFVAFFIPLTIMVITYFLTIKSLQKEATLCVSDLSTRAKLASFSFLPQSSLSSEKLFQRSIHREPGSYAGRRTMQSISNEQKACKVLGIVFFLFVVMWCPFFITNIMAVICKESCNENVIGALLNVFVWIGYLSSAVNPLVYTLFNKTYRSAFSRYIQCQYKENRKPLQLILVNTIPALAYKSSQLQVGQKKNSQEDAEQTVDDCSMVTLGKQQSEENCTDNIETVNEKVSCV
# UniProt P19327, whole entry: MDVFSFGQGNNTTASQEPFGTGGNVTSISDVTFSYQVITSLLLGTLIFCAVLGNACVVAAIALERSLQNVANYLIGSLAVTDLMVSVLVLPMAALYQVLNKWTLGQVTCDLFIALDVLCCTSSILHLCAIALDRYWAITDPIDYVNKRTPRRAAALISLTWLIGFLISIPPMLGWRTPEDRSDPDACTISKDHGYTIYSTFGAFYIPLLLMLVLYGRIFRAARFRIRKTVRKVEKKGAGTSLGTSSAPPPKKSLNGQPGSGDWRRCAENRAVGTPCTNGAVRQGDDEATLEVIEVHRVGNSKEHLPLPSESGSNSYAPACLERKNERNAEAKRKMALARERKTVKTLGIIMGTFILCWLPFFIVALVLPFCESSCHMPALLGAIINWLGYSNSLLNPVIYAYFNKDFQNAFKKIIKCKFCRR
# Experiments:
# [1] = target: Serotonin 2 (5-HT2) receptor (Rattus norvegicus, UniProt P30994+P08909+P14842); assay: The compound was tested for its binding affinity towards 5-hydroxytryptamine 2 receptor by displacing [3H]ketanserin radioligand in rat cerebral cortex; assay type: tissue-based
# [2] = target: 5-hydroxytryptamine receptor 1A (Rattus norvegicus, UniProt P19327); assay: Binding affinity towards 5-hydroxytryptamine 1A receptor by displacing [3H]WB-4101 from rat hippocampus; assay type: tissue-based
Structure (SMILES),Ki [1] [nM],Ki [2] [nM]
Cc1nc2sccn2c(=O)c1CCN1CCC(=C(c2ccc(F)cc2)c2ccc(F)cc2)CC1 [RITANSERIN],0.26,–
Cn1c(CN2CCN(c3cccc(Cl)c3)CC2)ccc1CN1CCCCC1=O,–,34.3
